Target: Poly [ADP-ribose] polymerase 1 (Homo sapiens, UniProt P09874)

Protein sequences, listed by entry. Tags and fused reporters are not part of them.
UniProt P09874, whole entry: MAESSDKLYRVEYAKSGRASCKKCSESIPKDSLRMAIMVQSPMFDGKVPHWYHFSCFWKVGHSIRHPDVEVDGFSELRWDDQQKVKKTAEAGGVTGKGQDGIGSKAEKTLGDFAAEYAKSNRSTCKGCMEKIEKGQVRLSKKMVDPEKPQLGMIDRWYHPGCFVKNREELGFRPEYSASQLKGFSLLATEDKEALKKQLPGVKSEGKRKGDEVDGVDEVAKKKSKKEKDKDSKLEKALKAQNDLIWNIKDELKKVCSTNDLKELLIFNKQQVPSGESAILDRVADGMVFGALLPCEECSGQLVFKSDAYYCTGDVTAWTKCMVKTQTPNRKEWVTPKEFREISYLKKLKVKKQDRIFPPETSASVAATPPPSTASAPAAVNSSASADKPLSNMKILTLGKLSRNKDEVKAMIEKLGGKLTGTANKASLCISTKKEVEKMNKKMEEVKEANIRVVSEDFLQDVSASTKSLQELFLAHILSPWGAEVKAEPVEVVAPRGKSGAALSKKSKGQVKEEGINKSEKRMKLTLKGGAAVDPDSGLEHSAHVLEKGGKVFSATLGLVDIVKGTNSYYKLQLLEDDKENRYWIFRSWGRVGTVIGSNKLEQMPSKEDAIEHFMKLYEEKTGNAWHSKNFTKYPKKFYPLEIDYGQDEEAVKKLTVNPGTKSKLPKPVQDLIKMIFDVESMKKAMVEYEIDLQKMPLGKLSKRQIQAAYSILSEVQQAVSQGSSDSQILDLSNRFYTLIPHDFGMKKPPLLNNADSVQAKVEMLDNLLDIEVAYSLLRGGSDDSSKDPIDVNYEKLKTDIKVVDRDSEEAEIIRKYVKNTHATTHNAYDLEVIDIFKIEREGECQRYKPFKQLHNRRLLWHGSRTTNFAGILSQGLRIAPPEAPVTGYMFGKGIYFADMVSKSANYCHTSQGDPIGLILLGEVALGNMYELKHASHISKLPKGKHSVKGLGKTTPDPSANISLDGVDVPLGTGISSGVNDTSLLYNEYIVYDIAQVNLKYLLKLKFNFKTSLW

O=c1[nH]c2cc(CN3CC=C(c4ccccc4)CC3)ccc2c2ccccc12
IC50: 16 nM

Source: ChEMBL document CHEMBL1141047, “4-Phenyl-1,2,3,6-tetrahydropyridine, an excellent fragment to improve the potency of PARP-1 inhibitors” (Bioorg Med Chem Lett, 2005)
